In US20040077634A1, “Treatment of diseases characterized by excessive or insufficient cell death” (priority 2001, published 2004):

Target: T1, recombinant caspase-3 (Homo sapiens, UniProt P42574)
T1 sequence (P42574 29-175 limits assumed): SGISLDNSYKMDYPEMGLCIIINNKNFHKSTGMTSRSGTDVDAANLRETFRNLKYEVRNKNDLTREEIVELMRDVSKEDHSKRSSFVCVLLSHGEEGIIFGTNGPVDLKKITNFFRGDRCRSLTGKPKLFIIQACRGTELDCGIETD
T1 sequence (P42574 176-277 limits assumed): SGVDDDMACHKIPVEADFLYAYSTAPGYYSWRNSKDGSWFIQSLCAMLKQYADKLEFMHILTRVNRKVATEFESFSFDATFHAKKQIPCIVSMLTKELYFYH
Assay: Recombinant caspase-3 activity, cleavage of DEVD-AFC
Format: biochemical
Conditions: 0.1 μM DEVD-CHO
Method: The inhibition of the DEVDase activity in the in vitro caspase activation system could be due to a direct inhibition of caspase-9, -3, or -7 activities, or to the inhibition of the apoptosome formation. To test if compounds a, f, and g were specific caspase inhibitors, recombinant caspase-3 and caspase-9 were incubated with the three compounds and the enzymatic activities of caspases were monitored by analysing the cleavage of the caspase-3 substrate DEVD-AFC or the caspase-9 substrate LEHD-AFC, respectively.

CC(=O)N[C@@H](CC(=O)O)C(=O)N[C@@H](CCC(=O)O)C(=O)N[C@H](C(=O)N[C@H](C=O)CC(=O)O)C(C)C [DEVD-CHO, reference compound]
inhibition of recombinant caspase-3 activity: almost total inhibition
